From ChEMBL document CHEMBL1149542, “Carbonic anhydrase inhibitors: inhibition of human, bacterial, and archaeal isozymes with benzene-1,3-disulfonamides--solution and crystallographic studies” (Bioorg Med Chem Lett, 2007)

Protein sequences, listed by entry. Tags and fused reporters are not part of them. Lines headed by an entry give the natural chain unless they say otherwise; changes in a name come on top.
UniProt Q9D6N1: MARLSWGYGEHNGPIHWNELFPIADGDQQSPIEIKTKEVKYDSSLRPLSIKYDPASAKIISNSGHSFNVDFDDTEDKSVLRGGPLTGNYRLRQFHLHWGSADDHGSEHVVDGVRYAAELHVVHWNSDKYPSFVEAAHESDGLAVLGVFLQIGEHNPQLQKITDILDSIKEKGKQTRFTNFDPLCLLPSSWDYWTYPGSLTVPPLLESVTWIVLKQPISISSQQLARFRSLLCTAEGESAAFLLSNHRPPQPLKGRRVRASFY

Target: Carbonic anhydrase 13 (Mus musculus) (UniProt Q9D6N1)
Experiment: Inhibition of mouse CA13

CC(=O)/N=c1/sc(S(N)(=O)=O)nn1C
Kinact: 19 nM
